Experimental data published in US20230227437A1, “IMMUNOMODULATOR” (priority 2020, published 2023).

The chains behind the UniProt entries cited, without tags or fusion partners. Residues count along the entry.
UniProt Q16552, 24-155 limits assumed: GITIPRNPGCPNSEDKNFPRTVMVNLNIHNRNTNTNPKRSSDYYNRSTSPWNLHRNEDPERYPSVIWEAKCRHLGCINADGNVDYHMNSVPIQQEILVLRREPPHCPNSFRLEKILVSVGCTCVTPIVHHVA
UniProt Q16552, 20-155 limits assumed: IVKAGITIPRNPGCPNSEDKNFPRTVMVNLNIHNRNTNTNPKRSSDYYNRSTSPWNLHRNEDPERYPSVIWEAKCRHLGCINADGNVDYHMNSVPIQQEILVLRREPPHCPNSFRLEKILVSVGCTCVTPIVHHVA

Tests used:
[1] = target: human IL-17A (hIL-17A) (Homo sapiens, UniProt Q16552); experiment: IL-17A enzyme-linked immunosorbent assay (competitive ELISA, receptor-ligand binding); details: read-out: ELISA IC50, IL-17A coated, 16 nM IL-17R
Experimental: The inhibition of receptor-ligand binding by human IL-17A (hIL-17A) inhibitors was detected by competitive ELISA. A 96-well plate was inoculated 0.2 μg/ml IL-17 (Sino Biological Inc. Cat #12047-H07B) for incubation at 37° C. for 30 min, 100 μL for per well. The 96-well plate was washed four times with phosphate buffered saline (PBS) containing Tween-20 (PBST, 0.05% Tween-20), 200 μL for per well each time. 200 μL of 5% skim milk were added into the 96-well plate for incubation on a shaker at 25° C. for 30 min. The 96-well plate was washed four times with PBST (0.05% Tween-20), and added with 89 μL of PBST and 1 μL of a compound to be measured (100×), in which a concentration the compound to be measured (100×) was 0.003 μM-30 μM. The mixture was mixed evenly and incubated at 25° C. for 10 min. The mixture was added with 10 μL of 16 nM IL-17R, followed by incubation at 25° C. for 30 min. After washing the 96-well plate 4 times, 100 μL of anti-Fc tag horseradish peroxidase (HRP) coupled antibody were added for incubation on a shaker at 25° C. for 30 min. After washing the 96-well plate 4 times, 100 μL of 3,3′,5,5′-tetramethylbenzidine (TMB) substrate solution were added to the 96-well plate for incubation away from light at 25° C. After addition of 20% HCl, an absorbance was measure by a microplate reader at 450 nm.
The compounds prepared according to the above method were assayed for human IL-17A inhibitory activity.

[2] = target: T1, hIL-17A (Homo sapiens, UniProt Q16552); experiment: Inhibition of hIL-17A-induced chemokine GROα/CXCL1 production in HT-29 cell; format: cell-based; details: read-out: HT-29 IC50; GROα/CXCL1 in HT-29 cells, 30 ng/mL hIL-17A, 48 h
Experimental: Human colorectal adenocarcinoma cell HT-29 was inoculated to a 96-well plate (5×10^4 for per well), and incubated at 37° C. on an incubator overnight. A mixture of 30 ng/mL hIL-17A protein (R&D, #317-ILB) with gradient concentrations of IL-17A small molecule inhibitors or with 0.3 μg/mL positive control IL-17A antibody (R&D, #AF-317-NA) was incubated for 1 h at 37° C., and added into the 96-well plate to incubated with HT-29 at 37° C. for 48 h. A level of GROα in a cell culture supernatant was then detected using an ELISA kit for GROα (Cisbio, #62HCXC1peg).
Inhibitory effect of the compound prepared in Examples on hIL-17A-induced chemokine GROα/CXCL1 production in HT-29 cell was tested according to the methods of Experimental Examples 1 and 2. […] “-” indicated not tested. According to the results, the compounds provided herein have good human IL-17A inhibitory activity and can be effectively used in the treatment of diseases associated with abnormal hIL-17A activity.

[3] = target: T1, hIL-17A; experiment: Binding to hIL-17A protein through surface plasmon resonance (SPR, Biacore 8K)

Row | Structure (SMILES) | IC50 [1] [nM] | IC50 [2] [nM] | Kd [3] [nM] | ka [3] [M⁻¹ s⁻¹] | kd [3] [s⁻¹]
1 | Cc1n[nH]c(C)c1-c1ccc(NC(=O)[C@@H](NC(=O)c2ccnn2C(C)C)C2c3ccc(F)cc3OCC23CC3)cc1 (some centres unmarked) | 193 | 55 |  |  | 
2 | CCc1nonc1C(=O)N[C@H](C(=O)Nc1ccc(-c2c(C)n[nH]c2C)cc1)C1c2ccc(F)cc2OCC12CC2 (some centres unmarked) | 230 | 34 |  |  | 
3 | Cc1n[nH]c(C)c1-c1ccc(NC(=O)[C@@H](NC(=O)c2ccnn2C(C)C)C(C2CC2)C2CC2)cc1 |  |  | 1.51 | 11900 | 1.8e-05
4 | Cc1n[nH]c(C)c1-c1ccc(NC(=O)[C@@H](NC(=O)c2nonc2C(C)C)C2c3ccc(F)cc3OCC23CC3)cn1 (some centres unmarked) | 79 | 227 |  |  | 
5 | Cc1n[nH]c(C)c1-c1ccc(NC(=O)[C@@H](NC(=O)c2ccnn2C(C)C)C2c3cc(F)cc(F)c3OCC23CC3)cn1 (some centres unmarked) | 507 | 986 |  |  | 
